According to publication PMC12459184, “Design, synthesis, and bioevaluation of pyrazole-containing tubulin polymerisation inhibitors based on conformational constraint strategy” (Journal of Enzyme Inhibition and Medicinal Chemistry, 2025):

Key:
tubulin = assay: In vitro tubulin polymerisation assay; assay type: biochemical; settings: 3 μM
Experimental: To investigate the effect of compounds 4k and 5a on microtubule system, their tubulin polymerisation inhibition activities were evaluated using in vitro tubulin polymerisation assay.
The BK001 kit used in this test was purchased from Cytoskeleton Inc. (Denver, CO, USA). […] Then the mixtures were transferred to 37 °C and tubulin assembly was monitored (excitation wavelength: 360 nm; emission wavelength: 420 nm) at 1 min intervals for 90 min by a microplate reader.

[1] = test system: human umbilical vein endothelial cells (HUVEC); assay: MTT toxicity assay, normal cells HUVEC; assay type: cell-based; settings: SI-H = IC50 (HUVEC)/IC50 (PC-3)
Experimental: (§1) The toxicity of compounds 4k and 5a was also tested by using human umbilical vein endothelial cells (HUVEC) and human liver cells (L02).
(§2) Cells grown in logarithmic phase were harvested and seeded onto 96-well cell plates at a density of 4 ∼ 5 × 10^3 cells per well (various from cell type) and were cultured for 24 h. Different concentrations of compounds were added into the wells, and the cells were cultured for another 72 h. The medium was removed, then 20 μL of MTT (5 mg/mL in PBS) was added to each well and the cells were incubated for 4 h. 150 μL of DMSO was added to each well to dissolve the formazan, and the absorbance at 490 nm of each well was measured by a microplate reader. IC50 values were calculated by SPSS software.

human liver cells (L02) = assay: MTT toxicity assay, normal cells L02; assay type: cell-based; settings: SI-L = IC50 (L02)/IC50 (PC-3)
Experimental: as §1, §2

Q: Which “effect on tubulin polymerisation (fluorescence intensity)” value (tubulin) does the source give for `COc1cc2c(c(OC)c1OC)-c1ccc(OC)c(=O)cc1[C@@H](NC(C)=O)CC2` [Colchicine, reference compound] here?
A: inhibition of tubulin polymerisation

Q: And the SI-H [1]?
A: 13.95

Q: What about the SI-L (human liver cells (L02)) of the same compound?
A: 0.797
